B1: Avonex: IFN-β-1a, standard MS therapy (protein, UniProt P01574 22-187, looked up)
Interferon beta: MSYNLLGFLQRSSNFQCQKLLWQLNGRLEYCLKDRMNFDIPEEIKQLQQFQKEDAALTIYEMLQNIFAIFRQDSSSTGWNETIVENLLANVYHQINHLKTVLEEKLEKEDFTRGKLMSSLHLKRYYGRILHYLKAKEYSHCAWTIVRVEILRNFYFINRLTGYLRN

Tests used:
CD4+CD25− T cells = assay: Treg assay of antigen-specific CD4+CD25+ T cell lines; type: cell-based, human; conditions: added to the Treg assay
Method: (§1) Treg assay: CD4+CD25+ and CD4+CD25− T cells were separated from 100 ml blood and each subpopulation was stimulated with anti-CD3+ anti-CD28 mAbs alone or in mixed cultures containing a fixed number (10,000) of CD4+CD25− responder cells and varying numbers of CD4+CD25+ T cells to give 0%, 20%, 33%, 50%, 67% and 100% in triplicate cultures (see FIG. 5). After 3 days, the cells were harvested and assessed for proliferation and cytokine production (IFN-γ and IL-10) in culture supernatants by ELISA. […]
A standard procedure was recently developed for assessing inhibitory activity of CD4+CD25+ Treg cells in vitro. […] These cell populations are cultured alone or are mixed at varying ratios using a constant number of CD4+CD25− responder T cells, and stimulated with plate-bound anti-CD3+anti-CD28 mAbs for 3 days, and are then assessed for proliferation responses using ^3H-Tdy uptake. […]
Suppression assays were performed in 96-well round bottom plates (Becton Dickinson, Franklin Lakes, N.J.) in a final volume of 200 μl/well of 1% type AB human Serum complete media (Biowhittaker, Walkersville, Md.). […] The cells were then harvested on glass fiber filters and assessed for uptake of the labeled thymidine by liquid scintillation. […]
The percent suppression was plotted versus increasing percentage of suppressor:indicator cells and a regression line was calculated. […]

[1] = system: CD4+CD25− indicator cells; assay: Treg activity of CD4+CD25+ T cells from PBMC of treated MS patients; type: in vivo, human; conditions: 1:2 ratio indicator:suppressor cells, FIG. 9
Method: as §1
Suppression assays were performed in 96-well round bottom plates (Becton Dickinson, Franklin Lakes, N.J.) in a final volume of 200 μl/well of 1% type AB human Serum complete media (Biowhittaker, Walkersville, Md.). […] The cells were then harvested on glass fiber filters and assessed for uptake of the labeled thymidine by liquid scintillation. Percent suppression was determined at each mixed cell ratio compared to responses of CD4+CD25+ (suppressor cells) and CD4+CD25− T cells (indicator T cells) alone as follows: Mean cpm (indicator cells)−mean cpm (mixed cell culture) mean cpm (indicator cells)−mean cpm (suppressor cells)
The percent suppression was plotted versus increasing percentage of suppressor:indicator cells and a regression line was calculated. I50 values were determined as the ratio of suppressor:indicator cells that produced 50% suppression. […]

Row | Molecule | reversal of Treg activity of TCR-reactive T cell lines by addition (CD4+CD25− T cells) | suppressive Treg activity of CD4+CD25+ T cells from treated MS patients [1]
1 | IL-2: interleukin-2 added to the Treg assay | reversed completely | 
2 | B1 |  | moderately suppressive

Source: US7462486B2, “Methods of selecting T cell receptor V peptides for therapeutic use” (Oregon Health & Science University, priority 2000, dated 2008)
